Data: patent publication US8211714B2, “Characterization of molecules” (Analiza, Inc., priority 2001, dated 2012)

Assay: Partitioning of human, bovine and porcine insulin in aqueous two-phase systems
Assay type: physicochemical
Experimental: Human recombinant insulin was purchased from ICN Biomedicals Inc. (Aurora, Ohio, USA), bovine and porcine insulins were purchased from Calbiochem Corporation (San Diego, Calif., USA) and used without further purification. […] Stock solutions of all insulins in 0.009M HCl were prepared and titrated with 0.01M NaOH to pH 6.0 with the final protein concentration of ca. 1.0 mg/ml. Stock solution of human insulin, stock solution of porcine insulin, and stock solution of bovine insulin were added to an aqueous two-phase system as described below.

| Substance | Partition coefficient K-value, Dex-Ficoll-NaCl—NaPB (11.74 wt.% Dextran-69, 17.51 wt.% Ficoll-70, 0.15M NaCl, 0.01 M sodium phosphate buffer pH 7.4) | Partition coefficient K-value, Dex-PEG-NaClO4—NaPB (12.16 wt.% Dextran-69, 6.05 wt.% PEG-6000, 0.43M NaClO4, 0.01 M sodium phosphate buffer pH 7.4) | Partition coefficient K-value, Dex-PEG-NaSCN—NaPB (12.16 wt.% Dextran-69, 6.05 wt.% PEG-6000, 1.26M NaSCN, 0.01 M sodium phosphate buffer pH 7.4) | Partition coefficient K-value, Dex-Ficoll-NaSCN—NaPB (13.67 wt.% Dextran-69, 18.34 wt.% Ficoll-70, 0.33M NaSCN, 0.01 M sodium phosphate buffer pH 7.4) | Partition coefficient K-value, Dex-Ficoll-NaCl—NaPB (pH 7.4) | Partition coefficient K-value, Dex-Ficoll-NaSCN—NaPB (pH 7.4) | Partition coefficient K-value, Dex-PEG-NaClO4—NaPB (pH 7.4) | Partition coefficient K-value, Dex-PEG-NaSCN—NaPB (pH 7.4) |
| --- | --- | --- | --- | --- | --- | --- | --- | --- |
| Bovine Insulin | 1.512 ± 0.012 | 0.702 ± 0.024 | 1.848 ± 0.021 | 0.968 ± 0.005 | – | – | – | – |
| Human Insulin | – | – | – | – | 1.262 ± 0.010 | 0.849 ± 0.014 | 0.776 ± 0.019 | 1.898 ± 0.022 |
